Values quoted from earlier work, collected in article PMC7014422.

Key:
[1] = molecular target: Connexin 45 CL2 peptide 164-186 (Homo sapiens) (UniProt P36383); test: fluorescence-labeled CaM
[2] = molecular target: Connexin 32 CT1 peptide CT1 (Rattus norvegicus) (UniProt P08033); test: equilibrium fluorescence

| Substance | Kd [1] | Kd [2] |
| --- | --- | --- |
| Calmodulin (from UniProt P0DP23) | 5 nM |  |
| TA-calmodulin (from UniProt P0DP23) |  | 1200 nM |
